System: HEp-2 cells
Test: Cytotoxicity assay (neutral red uptake)
Assay type: cell-based
Settings: HEp-2 monolayer cells, 48 h, 37 °C, 5% CO2, neutral red uptake, OD 540 nm

NC(=O)c1ncn([C@@H]2O[C@H](CO)[C@@H](O)[C@H]2O)n1 [Ribavirin]
Cytotoxicity CC50 in HEp-2 Cells (Cu-Peptide, and reference ribavirin): 2058 µM/mL

— PMC9962186, “Metal–Peptide Complexes with Antimicrobial Potential for Cotton Fiber Protection” (Journal of Functional Biomaterials, 2023)
